# According to US7166435B2 (priority 2001, dated 2007):
# Assays:
# [1] = tested on: Influenza A/Sydney/5/97 [H3N2]; assay: Ferret transmission study (infected donor treated)
# [2] = tested on: Influenza A/Sydney/5/97 [H3N2]; assay: Ferret prophylaxis study (uninfected recipients treated)
# [3] = tested on: Influenza A/Sydney/5/97 [H3N2]; assay: Efficacy of nasal spray as treatment of H3N2 influenza infection in ferrets; assay type: in vivo, ferret; conditions: infected ferrets treated daily for 4 days
# [4] = four-fold rise in anti HAI antibodies, day 24 post infection
# [5] = nasal washes titrated on MDCK cells
# [6] = four-fold increase in HAI antibodies, day 24 post infection
compound,measurement,setting,value
"CCOC(=O)C1=C[C@@H](OC(CC)CC)[C@H](NC(C)=O)[C@@H](N)C1 [Tamiflu ™, oseltamivir phosphate]",Mean Maximum Health Score,[1],.7500
same,Mean Total Health Score (sum of health scores post infection),[1],.5000
same,"maximum health score, p versus placebo group",[1],0.003
same,"weight loss (mean maximum weight change post infection), p versus placebo group",[1],0.019
same,Percentage of animals with nasal symptoms of influenza (donor animals excluded),[1]; Day 1,0%
same,Percentage of animals with reduced physical activity (donor animals excluded),[1]; Day 1,0%
same,Percentage of animals with nasal symptoms of influenza (donor animals excluded),[1]; Day 2,12.5%
same,Percentage of animals with reduced physical activity (donor animals excluded),[1]; Day 2,0%
same,Percentage of animals with reduced physical activity (donor animals excluded),[1]; Day 3,0%
same,Percentage of animals with nasal symptoms of influenza (donor animals excluded),[1]; Day 4,50%
same,Percentage of animals with reduced physical activity (donor animals excluded),[1]; Day 4,0%
same,Percentage of animals with nasal symptoms of influenza (donor animals excluded),"[1]; Day 4, listed as Tamiflu™",50%
same,Percentage of animals with nasal symptoms of influenza (donor animals excluded),[1]; Day 5,0%
same,Percentage of animals with reduced physical activity (donor animals excluded),[1]; Day 5,0%
same,Percentage of animals with nasal symptoms of influenza (donor animals excluded),[1]; Day 6,12.5%
same,Percentage of animals with reduced physical activity (donor animals excluded),[1]; Day 6,12.5%
same,# of animals seroconverted,[1]; [4],8/8
same,Percentage of animals seroconverted,[1]; [4],100%
same,# of animals shedding virus on day 6,[1]; [5],8/8
same,Percentage of animals shedding virus on day 6,[1]; [5],100%
same,"total health score, p versus placebo group","[1]; t-test, Bonferroni correction",0.03
same,"mean virus shedding, p Tamiflu treated group versus QR435 treatment group","[1]; t-test, Bonferroni correction, Tamiflu group shed significantly more virus",0.04
same,"mean virus shedding, p versus placebo treatment group","[1]; t-test, Bonferroni correction, group shed significantly more virus",0.021
same,Mean Maximum Health Score,[2],.3750
same,Mean Total Health Score (sum of health scores post infection),[2],.5000
same,Percentage of animals with nasal symptoms of influenza (donor animals excluded),[2]; Day 1,0%
same,Percentage of animals with reduced physical activity (donor animals excluded),[2]; Day 1,0%
same,Percentage of animals with nasal symptoms of influenza (donor animals excluded),[2]; Day 2,0%
same,Percentage of animals with reduced physical activity (donor animals excluded),[2]; Day 2,0%
same,Percentage of animals with nasal symptoms of influenza (donor animals excluded),[2]; Day 3,25%
same,Percentage of animals with reduced physical activity (donor animals excluded),[2]; Day 3,0%
same,Percentage of animals with nasal symptoms of influenza (donor animals excluded),"[2]; Day 3, listed as Tamiflu™",25%
same,Percentage of animals with nasal symptoms of influenza (donor animals excluded),[2]; Day 4,0%
same,Percentage of animals with reduced physical activity (donor animals excluded),[2]; Day 4,0%
same,Percentage of animals with nasal symptoms of influenza (donor animals excluded),[2]; Day 5,0%
same,Percentage of animals with reduced physical activity (donor animals excluded),[2]; Day 5,0%
same,Percentage of animals with nasal symptoms of influenza (donor animals excluded),[2]; Day 6,12.5%
same,Percentage of animals with reduced physical activity (donor animals excluded),[2]; Day 6,0%
same,# of animals seroconverted,[2]; [6],8/8
same,Percentage of animals seroconverted,[2]; [6],100%
same,# of animals shedding virus on day 6,[2]; [5],7/8
same,Percentage of animals shedding virus on day 6,[2]; [5],87.5%
same,Percentage of animals shedding virus on day 6,"[2]; nasal washes titrated on MDCK cells, listed as Tamiflu™",87.5%
same,"weight loss (maximum weight change), p versus placebo treatment group","[2]; t-test, Bonferroni correction",0.019
same,"reduction of illness (weight loss, fever, clinical symptoms)",[3],"effective at reducing weight loss, fever, and clinical symptoms"
